## AlphaSeq binding of Ab-95 light chain variants to a spike HR2 peptide

Data: MIT Lincoln Laboratory AlphaSeq set, Engelhart et al. 2022, doi:10.1038/s41597-022-01779-4, as distributed in FLAb.

Antigen: PDVDLGDISGINAS, a 14-residue peptide of the SARS-CoV-2 spike HR2 region.

Parent: Ab-95, a human scFv built as VH, three GGGGS repeats, VL. Only the CDRs of the light chain vary.
VH: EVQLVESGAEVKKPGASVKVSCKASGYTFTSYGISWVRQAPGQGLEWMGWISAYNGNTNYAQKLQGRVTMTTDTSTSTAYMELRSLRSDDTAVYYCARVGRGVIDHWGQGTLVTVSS
VL: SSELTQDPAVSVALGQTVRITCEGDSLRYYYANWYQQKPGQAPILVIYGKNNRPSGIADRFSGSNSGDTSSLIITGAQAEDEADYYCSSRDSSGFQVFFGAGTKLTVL

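The parent was found by panning a naive human phage display library on the peptide. In library AAYL52, one, two or three CDR residues were substituted; doubles and triples were drawn at random. In AlphaSeq, yeast of one mating type display the scFv and yeast of the other type display the target. Mating (16 h, 30 °C) was followed by selection of diploids and sequencing of their barcodes. Scores were corrected for input abundance and mapped to Kd with protein pairs of known affinity run in the same pool. Mating was done three times.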

Positions count from residue 1 of the parent VL; R28K puts K in place of R. Scale: log10 of Kd in nM, estimated from mating counts; low values are strong binders. Averages over replicates are reported, and they cover detected replicates only. A pair that was not seen in that replicate is written "ND"; this usually means weak binding, but a binder can also be missed. Parent in this assay: reference entry 2.31, copy in this library 2.25. Background: pairings of library AAYL52 with three empty control strains gave a value in 28% of cases (median 3.91, 5th percentile 2.90). Values in that range, when seen in few replicates, are hard to tell from nonspecific mating. Also given: how often the same scFv was detected with the empty control strains, with their mean in brackets.

| changes | log10 Kd (nM) by replicate | mean, log10 nM | empty controls |
|---|---|---|---|
| R28K/S93P/F98C | 3.02 2.97 3.44 | 3.14 | 5/9 (3.68) |
| R90F/S92C/S93I | 1.84 1.91 1.64 | 1.80 | 1/9 (4.59) |
| G24D/S92R/V97G | 2.82 ND ND | 2.82 | 2/9 (3.90) |
| D25Y/S26Y/Y31I | 2.93 2.32 2.02 | 2.42 | 1/9 (3.37) |
| P54D/D91H/Q96L | 4.40 2.92 ND | 3.66 | 2/9 (3.75) |
| Y29F/A32Y/F98K | ND 5.02 ND | 5.02 | 4/9 (4.63) |
| S26G/S89T/F95V | 2.60 3.45 2.74 | 2.93 | 3/9 (4.40) |
| Y30Q/N51L/S55T | 1.58 1.54 1.22 | 1.45 | 5/9 (4.15) |
| L27V/A32V | 3.35 3.98 4.28 | 3.87 | 4/9 (4.10) |
| L27Q/G49N/K50G | 2.90 2.54 2.34 | 2.59 | 3/9 (3.98) |
| Y30M/N51Q/S88D | ND ND 3.51 | 3.51 | 6/9 (3.43) |
| S92F | 2.22 2.26 2.19 | 2.22 | 2/9 (4.46) |
| Y31R/P54K/Q96F | 3.55 4.62 ND | 4.08 | 6/9 (3.73) |
| S88W/D91P/Q96L | 4.04 ND ND | 4.04 | 2/9 (3.08) |
| S89N/G94N/F98H | 5.29 3.42 ND | 4.35 | 2/9 (3.72) |
| S88G/D91L/F95I | 3.73 4.64 2.46 | 3.61 | 2/9 (3.74) |
| L27Y/R28Q/V97G | ND ND ND | ND | 2/9 (3.91) |
| Y29C/N33M/F95Q | 3.80 3.56 ND | 3.68 | 4/9 (3.84) |
| E23W/S26G/G94K | 3.16 3.24 4.16 | 3.52 | 4/9 (3.63) |
| D25F/L27T/S93W | 3.49 2.94 3.33 | 3.25 | 3/9 (4.13) |
| S26A/A32V/G49P | 5.36 ND 3.63 | 4.50 | 3/9 (4.16) |
| Y29N/P54K/D91K | 3.70 ND ND | 3.70 | 1/9 (3.09) |
| F95A/F98I | 4.85 4.40 4.30 | 4.52 | 3/9 (3.58) |
| S55H/S88T/S89C | 4.52 4.11 2.97 | 3.87 | 3/9 (3.74) |
| N51I/R53W/S93H | 2.57 ND 2.32 | 2.45 | 3/9 (3.99) |
| N33S/N52Y/P54C | 4.53 ND ND | 4.53 | 3/9 (3.79) |
| A32W/N51T/F95Y | ND ND 3.44 | 3.44 | 0/9 |
| R28Y/G49Q/S88A | 3.30 ND ND | 3.30 | 0/9 |
| D25E/S26G/K50L | 2.61 3.22 2.87 | 2.90 | 6/9 (3.77) |
| R90S/G94Y/V97K | 4.55 4.00 2.76 | 3.77 | 2/9 (2.72) |
| N33A/R53N/V97Y | 4.40 5.12 4.25 | 4.59 | 2/9 (3.40) |
| R28V/Y30L/V97M | ND ND 3.19 | 3.19 | 2/9 (3.18) |
| N33F/N51M/R53V | 4.03 ND ND | 4.03 | 1/9 (4.11) |
| G24L/R53D/S92E | ND 2.71 ND | 2.71 | 5/9 (4.36) |
| R28C/S55D/S92W | 3.25 2.63 2.81 | 2.90 | 3/9 (4.24) |
| D25V/S26Q/Y30E | 2.00 1.99 1.59 | 1.86 | 4/9 (3.65) |
| S26M/Q96I/F98T | ND ND ND | ND | 0/9 |
| R53C/S92A/S93K | 3.31 ND ND | 3.31 | 3/9 (3.57) |
| R28T/A32G/S55W | ND 4.08 ND | 4.08 | 4/9 (3.70) |

Excerpt, the final 6 entries:

changes,log10 Kd (nM) by replicate,"mean, log10 nM",empty controls
G24L/R53D/S92E,ND 2.71 ND,2.71,5/9 (4.36)
R28C/S55D/S92W,3.25 2.63 2.81,2.90,3/9 (4.24)
D25V/S26Q/Y30E,2.00 1.99 1.59,1.86,4/9 (3.65)
S26M/Q96I/F98T,ND ND ND,ND,0/9
R53C/S92A/S93K,3.31 ND ND,3.31,3/9 (3.57)
R28T/A32G/S55W,ND 4.08 ND,4.08,4/9 (3.70)